We go through one compound from PubChem BioAssay AID492967 (ICCB-Longwood Screening Facility, Harvard Medical School, 2010).

Only a part is listed here, and it is no random draw. Calls of active or inactive are those of the source. Rule as the data show it: active = z-score mostly below about -2.9 (no sharp cut-off); inactive = mostly above about -1.9.

This test concerns CapD gamma-glutamyltranspeptidase (Bacillus anthracis Ames Ancestor). The test can be described thus: inhibition of CapD gamma-glutamyltranspeptidase – biochemical, fluorescence intensity, primary screen (AID 492967). The following applies: purified CapD enzyme, fluorescence intensity read-out; active compounds read low.
On to `CN(CCCl)CCCl`, for which the z-score is inactive: 0.21.
